The record followed here is PMC3533909.

In this assay the target is Myc-tagged wild-type hPINK1 (pBOS-3X-myc-hPINK1-WT) (human) (UniProt Q9BXM7). Briefly: co-IP; 293 IL-1RI cells transfected for 42 to 48 hours, with or without 10 ng/ml IL-1β for 15 minutes, with or without co-expressed Myc-PINK1; 1% Nonidet P40 lysis buffer, 4°C.

“HA-tagged Toll-interacting protein (Tollip) (from UniProt Q9H0E2 1-274) (natural protein; other documents disagree on this pair)” registered an increase of the association upon IL-1β stimulation, against unstimulated cells of 60%.
